These are literature values, as cited in US20240424006A1, “USE OF UROLITHIN DERIVATIVES IN THE TREATMENT OF AMYOTROPHIC LATERAL SCLEROSIS” (Vandria SA, priority 2023, published 2024).

The conditions of this data set: ALS; FDA-approved therapy.

`Nc1nc2ccc(OC(F)(F)F)cc2s1` [riluzole]: the prolongation of survival entry is listed as “about 10%”.
